IC50 (nM), TNFα blockade assay and IC50 (nM), OX40L blockade assay data for three substances are collected here from patent publication KR20220081857A.

Experiment [1] deals with 인간 TNFα (ACROBiosystems TNF-H5228) (human) (UniProt P01375). In words: cell-based or functional assay.
Experiment [2] concerns the target 인간 OX40L 단백질 (OX40L-his; ACROBiosystems Cat# OXL-H52Q8) (human) (UniProt P23510). The experiment is described as follows: cell-based or functional assay.

In experiment [1], “reference 항 TNFα 항체 Ref. TNFαi (Humira VH/VL) (antibody)” displayed an IC50 (nM), TNFα blockade assay of 0.063 nM.
The same measure, in the same setting: to “이중 특이성 항체 TNFαi-02C09 HC (bispecific antibody)” belongs 0.057 nM.
Turning to “이중 특이성 항체 TNFαi-I3F07 HC (bispecific antibody)”, in experiment [2], the IC50 (nM), OX40L blockade assay came out at 0.8 nM. The IC50 (nM), TNFα blockade assay in experiment [1] is 0.054 nM.
